From ChEMBL document CHEMBL5385914 (J Med Chem, 2024)

Amino acid sequences for entries named in this document (tags omitted). A change or cut given only in a name is not applied to a line headed by its entry.
UniProt Q6B856, whole entry, looked up: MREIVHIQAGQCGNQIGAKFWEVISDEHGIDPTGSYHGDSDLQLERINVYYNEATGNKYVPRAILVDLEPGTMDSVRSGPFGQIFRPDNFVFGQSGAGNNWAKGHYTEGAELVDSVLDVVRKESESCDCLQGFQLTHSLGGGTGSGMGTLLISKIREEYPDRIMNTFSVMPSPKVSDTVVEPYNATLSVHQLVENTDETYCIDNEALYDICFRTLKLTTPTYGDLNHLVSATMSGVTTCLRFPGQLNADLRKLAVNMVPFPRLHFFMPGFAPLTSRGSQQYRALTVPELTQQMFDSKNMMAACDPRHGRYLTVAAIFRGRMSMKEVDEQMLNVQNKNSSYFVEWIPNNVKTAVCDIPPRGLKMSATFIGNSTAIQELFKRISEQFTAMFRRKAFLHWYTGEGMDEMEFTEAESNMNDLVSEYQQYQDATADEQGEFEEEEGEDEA
UniProt P68371: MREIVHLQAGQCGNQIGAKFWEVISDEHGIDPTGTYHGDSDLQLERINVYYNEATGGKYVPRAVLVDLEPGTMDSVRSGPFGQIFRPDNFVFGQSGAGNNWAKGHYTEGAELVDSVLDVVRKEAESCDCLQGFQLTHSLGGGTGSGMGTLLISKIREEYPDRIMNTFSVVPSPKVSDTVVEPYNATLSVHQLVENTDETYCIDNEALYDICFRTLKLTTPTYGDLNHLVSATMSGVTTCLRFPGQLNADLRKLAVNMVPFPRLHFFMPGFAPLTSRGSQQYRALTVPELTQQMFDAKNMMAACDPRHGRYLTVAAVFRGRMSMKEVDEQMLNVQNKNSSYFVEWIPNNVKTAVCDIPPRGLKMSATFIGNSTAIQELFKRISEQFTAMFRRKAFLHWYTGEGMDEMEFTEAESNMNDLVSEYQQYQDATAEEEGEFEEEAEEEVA
UniProt Q9H4B7: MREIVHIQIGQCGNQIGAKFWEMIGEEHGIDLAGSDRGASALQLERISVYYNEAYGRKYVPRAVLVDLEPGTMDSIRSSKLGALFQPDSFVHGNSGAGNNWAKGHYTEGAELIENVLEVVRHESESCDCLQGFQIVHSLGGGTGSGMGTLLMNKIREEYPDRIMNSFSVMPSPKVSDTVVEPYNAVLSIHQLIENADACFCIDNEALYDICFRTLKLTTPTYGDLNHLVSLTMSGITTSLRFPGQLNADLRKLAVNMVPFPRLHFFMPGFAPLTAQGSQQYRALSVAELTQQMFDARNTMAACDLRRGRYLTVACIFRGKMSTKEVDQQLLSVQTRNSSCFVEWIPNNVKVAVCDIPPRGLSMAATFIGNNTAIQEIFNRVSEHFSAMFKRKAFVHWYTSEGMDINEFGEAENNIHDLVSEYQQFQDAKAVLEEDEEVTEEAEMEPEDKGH
UniProt P0DPH7: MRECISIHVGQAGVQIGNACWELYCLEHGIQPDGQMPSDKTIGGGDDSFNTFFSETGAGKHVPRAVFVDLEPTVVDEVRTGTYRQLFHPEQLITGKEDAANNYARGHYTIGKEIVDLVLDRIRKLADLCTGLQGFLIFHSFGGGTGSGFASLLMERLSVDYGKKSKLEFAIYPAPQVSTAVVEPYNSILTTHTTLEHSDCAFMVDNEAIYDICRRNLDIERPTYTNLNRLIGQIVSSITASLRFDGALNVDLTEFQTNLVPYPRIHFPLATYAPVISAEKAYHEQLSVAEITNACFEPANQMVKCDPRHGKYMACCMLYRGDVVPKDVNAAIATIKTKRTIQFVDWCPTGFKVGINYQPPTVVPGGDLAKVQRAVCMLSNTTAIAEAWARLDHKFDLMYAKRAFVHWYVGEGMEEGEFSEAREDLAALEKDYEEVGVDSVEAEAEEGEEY
UniProt Q13509: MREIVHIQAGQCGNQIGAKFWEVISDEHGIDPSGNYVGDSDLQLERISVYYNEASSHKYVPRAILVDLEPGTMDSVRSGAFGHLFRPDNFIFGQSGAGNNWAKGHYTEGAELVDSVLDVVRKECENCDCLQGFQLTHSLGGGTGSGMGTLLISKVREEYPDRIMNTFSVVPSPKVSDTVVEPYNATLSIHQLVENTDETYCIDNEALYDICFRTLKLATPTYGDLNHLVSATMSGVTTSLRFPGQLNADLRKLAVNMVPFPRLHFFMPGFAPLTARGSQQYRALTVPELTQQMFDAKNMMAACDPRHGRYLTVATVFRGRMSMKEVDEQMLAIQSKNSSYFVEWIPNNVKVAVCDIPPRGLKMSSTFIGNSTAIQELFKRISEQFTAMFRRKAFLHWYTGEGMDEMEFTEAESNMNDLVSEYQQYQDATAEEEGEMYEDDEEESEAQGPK
UniProt Q71U36: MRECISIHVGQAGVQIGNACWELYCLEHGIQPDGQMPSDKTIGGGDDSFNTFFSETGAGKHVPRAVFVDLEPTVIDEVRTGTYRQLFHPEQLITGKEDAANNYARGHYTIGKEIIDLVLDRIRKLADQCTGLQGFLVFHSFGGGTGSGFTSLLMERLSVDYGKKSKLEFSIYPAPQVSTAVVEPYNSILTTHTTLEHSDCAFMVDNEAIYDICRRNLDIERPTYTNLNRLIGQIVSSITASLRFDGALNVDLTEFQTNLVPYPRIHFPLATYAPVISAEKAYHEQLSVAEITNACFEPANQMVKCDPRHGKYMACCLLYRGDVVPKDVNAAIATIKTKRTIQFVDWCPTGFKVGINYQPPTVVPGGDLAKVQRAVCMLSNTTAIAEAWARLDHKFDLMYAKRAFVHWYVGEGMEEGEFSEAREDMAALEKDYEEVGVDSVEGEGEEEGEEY
UniProt P04350: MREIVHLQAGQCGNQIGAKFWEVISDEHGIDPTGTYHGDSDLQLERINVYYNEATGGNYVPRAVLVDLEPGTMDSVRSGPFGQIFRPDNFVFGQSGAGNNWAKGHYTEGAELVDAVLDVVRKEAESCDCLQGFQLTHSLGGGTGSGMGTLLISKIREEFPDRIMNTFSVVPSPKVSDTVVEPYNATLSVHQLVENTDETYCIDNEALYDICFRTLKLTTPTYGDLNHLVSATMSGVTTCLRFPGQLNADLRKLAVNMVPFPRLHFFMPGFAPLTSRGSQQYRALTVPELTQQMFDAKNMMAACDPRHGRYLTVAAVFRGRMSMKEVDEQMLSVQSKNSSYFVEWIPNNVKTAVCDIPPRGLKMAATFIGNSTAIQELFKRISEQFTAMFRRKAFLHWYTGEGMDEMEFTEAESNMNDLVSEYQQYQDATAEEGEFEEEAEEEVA
UniProt Q3ZCM7: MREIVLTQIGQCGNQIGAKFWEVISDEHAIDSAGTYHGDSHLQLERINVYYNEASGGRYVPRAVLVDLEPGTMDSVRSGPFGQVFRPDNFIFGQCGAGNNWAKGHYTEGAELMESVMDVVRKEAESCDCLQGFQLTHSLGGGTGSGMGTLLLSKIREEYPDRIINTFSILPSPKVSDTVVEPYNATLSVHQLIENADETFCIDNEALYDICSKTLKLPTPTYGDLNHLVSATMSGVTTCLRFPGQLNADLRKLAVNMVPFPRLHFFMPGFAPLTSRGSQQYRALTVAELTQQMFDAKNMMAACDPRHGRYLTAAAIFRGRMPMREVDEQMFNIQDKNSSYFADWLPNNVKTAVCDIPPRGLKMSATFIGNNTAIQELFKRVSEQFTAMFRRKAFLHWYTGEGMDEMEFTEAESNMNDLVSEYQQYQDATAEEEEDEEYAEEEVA
UniProt P68363: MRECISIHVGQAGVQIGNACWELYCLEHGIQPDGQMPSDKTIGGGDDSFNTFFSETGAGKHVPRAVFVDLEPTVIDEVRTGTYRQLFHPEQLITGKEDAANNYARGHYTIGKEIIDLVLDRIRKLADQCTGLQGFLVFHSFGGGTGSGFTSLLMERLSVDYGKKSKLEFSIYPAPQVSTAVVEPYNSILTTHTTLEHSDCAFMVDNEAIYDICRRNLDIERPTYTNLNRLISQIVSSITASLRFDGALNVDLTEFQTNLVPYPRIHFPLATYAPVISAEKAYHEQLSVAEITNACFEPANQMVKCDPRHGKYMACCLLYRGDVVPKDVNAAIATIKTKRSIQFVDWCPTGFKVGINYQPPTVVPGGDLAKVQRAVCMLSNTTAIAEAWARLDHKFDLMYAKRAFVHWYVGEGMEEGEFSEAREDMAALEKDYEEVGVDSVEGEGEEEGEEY
UniProt Q9BQE3: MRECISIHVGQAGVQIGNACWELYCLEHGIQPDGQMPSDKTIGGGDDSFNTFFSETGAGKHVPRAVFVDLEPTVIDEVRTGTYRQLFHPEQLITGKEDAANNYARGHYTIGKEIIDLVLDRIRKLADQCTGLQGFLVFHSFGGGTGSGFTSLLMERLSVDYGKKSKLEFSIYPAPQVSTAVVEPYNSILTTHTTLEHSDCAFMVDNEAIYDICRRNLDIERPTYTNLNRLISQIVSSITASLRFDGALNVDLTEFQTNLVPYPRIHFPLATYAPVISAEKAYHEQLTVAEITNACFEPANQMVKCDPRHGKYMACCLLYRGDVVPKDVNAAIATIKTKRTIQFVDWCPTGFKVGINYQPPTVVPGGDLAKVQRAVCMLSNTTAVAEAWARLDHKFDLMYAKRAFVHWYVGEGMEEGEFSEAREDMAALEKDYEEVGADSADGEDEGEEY
UniProt Q6PEY2: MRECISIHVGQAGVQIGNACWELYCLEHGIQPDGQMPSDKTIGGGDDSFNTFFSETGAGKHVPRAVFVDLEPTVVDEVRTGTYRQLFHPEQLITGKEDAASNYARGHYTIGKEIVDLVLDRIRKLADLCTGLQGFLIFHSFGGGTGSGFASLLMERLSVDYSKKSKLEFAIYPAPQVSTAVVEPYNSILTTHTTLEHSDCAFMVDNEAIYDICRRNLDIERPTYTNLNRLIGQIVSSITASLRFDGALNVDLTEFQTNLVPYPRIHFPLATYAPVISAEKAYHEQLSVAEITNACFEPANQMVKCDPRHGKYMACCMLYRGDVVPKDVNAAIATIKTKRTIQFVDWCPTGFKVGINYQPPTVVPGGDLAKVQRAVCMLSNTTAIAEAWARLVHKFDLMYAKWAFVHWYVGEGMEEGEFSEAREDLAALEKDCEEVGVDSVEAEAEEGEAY
UniProt Q13885: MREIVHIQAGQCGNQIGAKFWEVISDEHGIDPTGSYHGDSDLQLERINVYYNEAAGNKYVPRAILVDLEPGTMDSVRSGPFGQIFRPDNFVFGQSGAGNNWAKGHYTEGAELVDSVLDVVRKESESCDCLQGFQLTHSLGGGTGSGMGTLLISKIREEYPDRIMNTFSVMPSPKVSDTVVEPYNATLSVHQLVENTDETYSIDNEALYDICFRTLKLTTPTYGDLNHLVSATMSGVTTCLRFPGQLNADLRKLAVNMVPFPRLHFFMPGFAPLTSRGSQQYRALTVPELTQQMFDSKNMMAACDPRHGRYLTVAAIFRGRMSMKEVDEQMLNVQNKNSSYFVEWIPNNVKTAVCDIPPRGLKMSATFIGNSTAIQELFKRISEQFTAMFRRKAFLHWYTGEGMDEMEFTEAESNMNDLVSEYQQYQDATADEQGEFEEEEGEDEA
UniProt Q9BVA1: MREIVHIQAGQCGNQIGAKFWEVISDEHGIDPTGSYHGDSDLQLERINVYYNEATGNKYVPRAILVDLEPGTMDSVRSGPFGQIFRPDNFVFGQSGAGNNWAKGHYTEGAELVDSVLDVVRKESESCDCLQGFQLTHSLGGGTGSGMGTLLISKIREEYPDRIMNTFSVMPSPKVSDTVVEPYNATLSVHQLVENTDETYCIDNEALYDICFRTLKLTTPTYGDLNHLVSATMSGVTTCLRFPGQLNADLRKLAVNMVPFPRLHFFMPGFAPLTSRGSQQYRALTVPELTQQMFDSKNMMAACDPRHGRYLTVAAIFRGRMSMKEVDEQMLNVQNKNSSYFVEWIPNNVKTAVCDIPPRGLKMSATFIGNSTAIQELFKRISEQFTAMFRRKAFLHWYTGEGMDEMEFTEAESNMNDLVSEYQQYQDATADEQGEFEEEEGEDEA
UniProt Q9BUF5: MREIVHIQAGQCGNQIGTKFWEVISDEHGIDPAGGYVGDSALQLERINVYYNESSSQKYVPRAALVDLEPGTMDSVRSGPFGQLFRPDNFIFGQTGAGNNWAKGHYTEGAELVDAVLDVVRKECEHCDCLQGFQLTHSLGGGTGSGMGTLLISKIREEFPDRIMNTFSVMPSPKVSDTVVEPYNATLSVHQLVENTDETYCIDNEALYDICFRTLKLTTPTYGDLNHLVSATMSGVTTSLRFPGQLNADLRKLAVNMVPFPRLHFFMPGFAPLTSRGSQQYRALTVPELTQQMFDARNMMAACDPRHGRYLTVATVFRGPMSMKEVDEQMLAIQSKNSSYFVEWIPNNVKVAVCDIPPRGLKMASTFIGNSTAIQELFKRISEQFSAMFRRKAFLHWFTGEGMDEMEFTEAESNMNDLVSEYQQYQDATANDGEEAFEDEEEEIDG

Legend:
Tubulin (Bos taurus) [1] = target: T1, Tubulin (Bos taurus) (UniProt Q6B856+Q862L2+Q862F3); assay: Binding affinity to calf brain tubulin colchicine binding site assessed as Koff at 3 uM incubated for 30 mins by fluorescence based photon-counting instrument
Tubulin (Bos taurus) [2] = target: T1, Tubulin (Bos taurus); assay: Binding affinity to calf brain tubulin colchicine binding site assessed as retention half time at 3 uM incubated for 30 mins by fluorescence based photon-counting instrument
Tubulin (Homo sapiens) = Tubulin (Homo sapiens) (UniProt P68371+Q9H4B7+P0DPH7+P68366+Q13509+Q71U36+P04350+Q3ZCM7+P07437+P68363+Q9BQE3+Q6PEY2+Q13885+Q9BVA1+Q9BUF5)

SMILES	K (Tubulin (Bos taurus) [1])	T1/2 (Tubulin (Bos taurus) [2]) [min]	Ka (Tubulin (Homo sapiens))
CCC[C@@H](NC(=O)[C@]1(C)CSC(/C(C)=N/O)=N1)c1cc(OCC2CC2)cc(=O)o1	5.6 10^-4/s	19	
COCc1cc2cccc(NC(C)=C3C(=O)CC(c4ccccc4)CC3=O)c2o1 (stereo not drawn)			7.1 10^6/M
